# Target: GST-tagged mouse Mcl-1-(152–309) (Mus musculus, UniProt P97287)
# The chains behind the UniProt entries cited, without tags or fusion partners. Residues count along the entry.
# UniProt P97287, 152-309: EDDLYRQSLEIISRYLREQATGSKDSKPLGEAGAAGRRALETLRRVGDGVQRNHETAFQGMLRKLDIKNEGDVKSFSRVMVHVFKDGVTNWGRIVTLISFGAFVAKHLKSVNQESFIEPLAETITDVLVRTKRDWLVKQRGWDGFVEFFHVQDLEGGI
# Assay: Fluorescence polarization competitive binding assay, GST-Mcl-1 / FITC-Bim-BH3
# Design: reference not given here
row,SMILES,selectivity index
1,"COc1cccc(CN(CCSc2ccccc2)Cc2ccc(S(=O)(=O)NC(=O)c3sc(-c4ccccc4)nc3C)cc2)c1 [SZ17TA3, O=C(NS(C1=CC=C(CN(CC2=CC(OC)=CC=C2)CCSC3=CC=CC=C3)C=C1)(=O)=O)C4=C(C)N=C(C5=CC=CC=C5)S4]",5.8
2,"Cc1nc(-c2ccccc2)sc1C(=O)NS(=O)(=O)c1ccc(CN(CCSc2ccccc2)Cc2c(F)cccc2Cl)cc1 [SZ15TA3, O=C(NS(C1=CC=C(CN(CCSC2=CC=CC=C2)CC3=C(F)C=CC=C3Cl)C=C1)(=O)=O)C4=C(C)N=C(C5=CC=CC=C5)S4]",6.3
3,"COc1cccc(CN(CCSc2ccccc2)Cc2ccc(S(=O)(=O)NC(=O)c3cccc4ccccc34)cc2)c1 [SZ17TA7, O=C(NS(C1=CC=C(CN(CC2=CC(OC)=CC=C2)CCSC3=CC=CC=C3)C=C1)(=O)=O)C4=C(C=CC=C5)C5=CC=C4]",3.6
4,"COc1cc(OC)cc(C(=O)NS(=O)(=O)c2ccc(CN(CCSc3ccccc3)Cc3ccc(S(=O)(=O)N=[N+]=[N-])cc3)cc2)c1 [SZ9TA5, O=C(NS(C1=CC=C(CN(CC2=CC=C(S(=O)(N=[N+]=[N-])=O)C=C2)CCSC3=CC=CC=C3)C=C1)(=O)=O)C4=CC(OC)=CC(OC)=C4]",4.4
5,"O=C(NS(=O)(=O)c1ccc(CN(CCSc2ccccc2)Cc2c(F)cccc2Cl)cc1)c1ccccc1 [SZ15TA1, O=C(NS(C1=CC=C(CN(CCSC2=CC=CC=C2)CC3=C(F)C=CC=C3Cl)C=C1)(=O)=O)C4=CC=CC=C4]",3.0
6,"[N-]=[N+]=NS(=O)(=O)c1ccc(CN(CCSc2ccccc2)Cc2ccc(S(=O)(=O)NC(=O)c3ccccc3)cc2)cc1 [SZ9TA1, O=C(NS(C1=CC=C(CN(CC2=CC=C(S(=O)(N=[N+]=[N-])=O)C=C2)CCSC3=CC=CC=C3)C=C1)(=O)=O)C4=CC=CC=C4]",1.5
7,"O=C(NS(=O)(=O)c1ccc(CN(CCSc2ccccc2)Cc2c(F)cccc2Cl)cc1)c1ccc(CCc2ccccn2)cc1 [SZ15TA17, O=C(NS(C1=CC=C(CN(CCSC2=CC=CC=C2)CC3=C(F)C=CC=C3Cl)C=C1)(=O)=O)C4=CC=C(CCC5=NC=CC=C5)C=C4]",2.8
8,"Cc1noc(C)c1-c1ccc(S(=O)(=O)NC(=O)c2ccc(CN3C(=O)C(c4ccc(F)cc4F)=C(c4ccc(F)cc4F)C3=O)cc2)cc1 [SZ32TA42, O=C(NS(C1=CC=C(C2=C(C)ON=C2C)C=C1)(=O)=O)C3=CC=C(CN4C(C(C5=C(F)C=C(F)C=C5)=C(C6=CC=C(F)C=C6F)C4=O)=O)C=C3]",2.3
9,"[N-]=[N+]=NS(=O)(=O)c1ccc(CN(CCSc2ccccc2)Cc2ccc(S(=O)(=O)NC(=O)c3cccc4ccccc34)cc2)cc1 [SZ9TA7, O=C(NS(C1=CC=C(CN(CC2=CC=C(S(=O)(N=[N+]=[N-])=O)C=C2)CCSC3=CC=CC=C3)C=C1)(=O)=O)C4=C(C=CC=C5)C5=CC=C4]",8.1
10,"O=C(NS(=O)(=O)c1ccc(CN(CCSc2ccccc2)Cc2c(F)cccc2Cl)cc1)c1ccc(-c2ccccn2)cc1 [SZ15TA25, O=C(NS(C1=CC=C(CN(CCSC2=CC=CC=C2)CC3=C(F)C=CC=C3Cl)C=C1)(=O)=O)C4=CC=C(C5=NC=CC=C5)C=C4]",3.6
